Experimental findings from ChEMBL document CHEMBL4715829, “Heterodimeric Rifampicin-Tobramycin conjugates break intrinsic resistance of Pseudomonas aeruginosa to doxycycline and chloramphenicol in vitro and in a Galleria mellonella in vivo model” (Eur J Med Chem, 2019) are described below.

Test [1] deals with Pseudomonas aeruginosa. In words: Antibacterial activity against Pseudomonas aeruginosa 100036 assessed as fractional inhibitory concentration index in presence of doxycycline incubated for 18 hrs by broth microdilution assay. Format: functional.
The subject of test [2] is Pseudomonas aeruginosa. In words: Antibacterial activity against Pseudomonas aeruginosa 264-101354 assessed as fractional inhibitory concentration index in presence of doxycycline incubated for 18 hrs by broth microdilution assay. Format: functional. On the technique in general: Dilution methods test growth across graded concentrations, often in twofold steps.

As to `CO[C@H]1/C=C/O[C@@]2(C)Oc3c(C)c(O)c4c(O)c(c(/C=N/N5CCN(C)CC5)c(O)c4c3C2=O)NC(=O)/C(C)=C\C=C\[C@H](C)[C@H](O)[C@@H](C)[C@@H](O)[C@@H](C)[C@H](OC(C)=O)[C@@H]1C` [RIFAMPIN], the “fractional inhibitory concentration index (FICI)” value in test [1] and in test [2] was 1.25 throughout.
